# Data from ChEMBL document CHEMBL3785048, “Effects of polar receptor agonists designed for the periphery on ATP-induced Ca2+release from keratinocytes” (Medchemcomm, 2016).
# By UniProt entry, the sequences of proteins in these tests, tags left out. Where a name states a change or a piece, a line headed by the entry shows the natural chain unless it says otherwise.
# UniProt P41145: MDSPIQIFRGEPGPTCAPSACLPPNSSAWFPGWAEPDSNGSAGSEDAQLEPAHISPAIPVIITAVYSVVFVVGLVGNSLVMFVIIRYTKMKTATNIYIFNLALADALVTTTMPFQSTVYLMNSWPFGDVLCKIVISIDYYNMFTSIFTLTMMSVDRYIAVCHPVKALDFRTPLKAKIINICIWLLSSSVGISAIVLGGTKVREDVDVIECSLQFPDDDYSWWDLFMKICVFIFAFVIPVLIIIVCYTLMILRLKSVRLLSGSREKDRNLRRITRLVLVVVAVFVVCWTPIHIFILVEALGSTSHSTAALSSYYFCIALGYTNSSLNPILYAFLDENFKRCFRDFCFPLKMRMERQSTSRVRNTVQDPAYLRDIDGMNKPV
# Target: Kappa-type opioid receptor (Homo sapiens, UniProt P41145)
# Assay: Agonist activity at human kappa opioid receptor expressed in HEK-293 cells after 45 mins by [35S]GTP-gamma-S binding assay in presence of 10 uM of GDP
# Assay type: cell-based, HEK293
structure (smiles),measurement,value
COC(=O)N1CCN(C(=O)Cc2ccc(Cl)c(Cl)c2)C2C(N3CCCC3)CCCC21 (stereo unspecified),EC50,20 nM
